Measurements reported in patent publication US20160041146A1 (priority 2014, published 2016).

Format: in vivo, human
Source text: Determining the amount of a drug in fluid of the subject may be accomplished by use of any method known to those skilled in the art. Non-limiting examples for determining the amount of a drug in fluid of a subject include fluorescence polarization immunoassay (“FPIA,” Abbott Diagnostics), mass spectrometry (MS), gas chromatography-mass spectrometry (GC-MS-MS), liquid chromatography-mass spectrometry (LC-MS-MS), and the like. In one embodiment, LC-MS-MS methods known to those skilled in the art are used to determine a raw level, amount or concentration of a drug in urine of the subject. In one embodiment, a raw level or concentration of a drug in urine of a subject is measured and reported as a ratio, percent, or in relationship to the amount of fluid. The amount of fluid may be expressed as a unit volume, for example, in L, mL, μL, pL, ounce, etc. In one embodiment, the raw amount of a drug in urine of a subject may be expressed as an absolute level or value, for example, in g, mg, μg, ng, pg, etc.
In an embodiment, the raw primary metabolite and secondary metabolite concentrations measured in urine of the subject are transformed and normalized (hereafter “Equation 3”): […]

Compound: CN1CC[C@]23c4c5ccc(O)c4O[C@H]2C(=O)CC[C@H]3[C@H]1C5 [hydromorphone]
- median urine drug concentration (Hydrocodone model population, approximately 84,000 patient results over one year, average daily dosage 32 mg): 441 ng/mL
- Urine concentration (median) (patient validity data set for Hydrocodone model, 50 subjects, average hydrocodone dosage 26 mg): 612 ng/mL
